The numbers were not newly measured in patent publication US20140314757A1, “PHYTOCANNABINOIDS FOR USE IN THE TREATMENT OF BREAST CANCER” (priority 2011, published 2014), which cites them from elsewhere.

For the data set, the system named is Her2-positive breast cancers. As to conditions: most responders eventually relapse; cited from earlier work.

Turning to “trastuzumab: humanized monoclonal antibody against Her2”, the Her2-positive tumours responding is 25%.
